Reference: patent US5629198A (priority 1991, dated 1997)

Legend:
[1] = tested on: male ICR mice; test: Repeated-administration toxicity test, 2 weeks (Test Example 10); assay type: in vivo; conditions: intravenous, 80, 200 and 500 mg/kg/day
Experimental: S-HSA-EDC-Hemin was repeatedly administered for 2 weeks at doses of 80, 200 and 500 mg/kg/day in veins of male ICR mice (Charles River Japan, Inc., 15 mice per group) to observe its effects.

[2] = tested on: male ICR mice; test: One-administration toxicity test, intraperitoneal (Test Example 9); assay type: in vivo
Experimental: A specimen was dissolved at a protein concentration of 100 mg/ml in a physiological saline (pH 7.0), and the solution was sterilely filtered through a membrane filter of 0.22 μm. The filtrate was intraperitoneally administered to male ICR mice (Charles River Japan, Inc.) aged 5 weeks and 5 days. Defining the day of the administration as 0 day, their weights were measured on the second, fourth, seventh, tenth and fifteenth days.
In each of the toxicity tests, organ autopsy was conducted to all the mice on the fifteenth day after the administration.

Which results are given for “S--HSA--EDC-Hemin: complex of succinylated human serum albumin and EDC-Hemin”?
deaths throughout the administration period [1]: no deaths; organ autopsy on the fifteenth day [2]: intestinal adhesion, hepatomegaly and the like
